Two substances from paper PMC10349104 can be followed below.

Assay in all cases: SPR
In general terms: In SPR one partner is held on a chip, and binding of the other changes the refractive index at the surface.

For assay [1], the target named is EVA-A(L39P) (A. americanum).
Assay [2] concerns the target EVA-A(L39P) (Amblyomma americanum).
Assay [3] concerns the target EVA-A(Y44A) (A. americanum).
The target in assay [4] is EVA-A(Y44A) (Amblyomma americanum).
Assay [5] has as its target EVA-A(1-98) (A. americanum).
The target in assay [6] is EVA-A(C8) (A. americanum).

“And” between values parts separate entries of the source, which are not always exact repeats. Equal entries are not always repeated.

In general, Kd refers to the concentration at which binding is half-saturated. Low values mean a tighter complex, high ones a looser complex. What is called koff is the rate constant with which the complex falls apart. Low values mean slow dissociation, high ones fast dissociation. In general, kon refers to the second-order rate constant of association. A higher kon goes with faster complex formation. Regarding “CCL7(Y13A) (from UniProt P80098 24-99) (ligand)”, the Kd in assay [1] is less than 0.1 nM; in assay [2], 0.0342 nM and 0.0822 nM and 0.0127 nM; in assay [3] it was 20 nM; in assay [4], 19.5 nM and 22 nM and 18.6 nM. Besides, the koff in assay [1] was less than 0.0001 s⁻¹; in assay [3] it was 0.0088 s⁻¹; in assay [4] it was 0.00833 s⁻¹ and 0.00894 s⁻¹ and 0.00913 s⁻¹. The kon in assay [1] was 685000 M⁻¹ s⁻¹; in assay [2] it was 662000 M⁻¹ s⁻¹ and 703000 M⁻¹ s⁻¹ and 689000 M⁻¹ s⁻¹; in assay [3] it was 441000 M⁻¹ s⁻¹; in assay [4], 428000 M⁻¹ s⁻¹ and 406000 M⁻¹ s⁻¹ and 490000 M⁻¹ s⁻¹.
In the case of “CCL7 (from UniProt P80098 24-99) (ligand)”, the koff in assay [5] was 0.00179 s⁻¹; in assay [6] it was 0.166 s⁻¹; in assay [1], less than 0.0001 s⁻¹; in assay [2] it was 5.95e-05 s⁻¹ and 6.13e-05 s⁻¹ and 7.32e-05 s⁻¹; in assay [3], 0.00199 s⁻¹; in assay [4] it was 0.00186 s⁻¹ and 0.0018 s⁻¹ and 0.00229 s⁻¹. Also, the kon is 31000 M⁻¹ s⁻¹ in assay [5]; 177000 M⁻¹ s⁻¹ in assay [6]; 1.05e+06 M⁻¹ s⁻¹ in assay [1]; 821000 M⁻¹ s⁻¹ and 1.07e+06 M⁻¹ s⁻¹ and 1.26e+06 M⁻¹ s⁻¹ in assay [2]; 419000 M⁻¹ s⁻¹ in assay [3]; 403000 M⁻¹ s⁻¹ and 333000 M⁻¹ s⁻¹ and 520000 M⁻¹ s⁻¹ in assay [4]. Further, the Kd is less than 0.1 nM in assay [1]; 0.0725 nM and 0.0574 nM and 0.058 nM in assay [2]; 4.81 nM in assay [3].
